1 compound from US8716333B2, “Process and compounds for the manufacture of oseltamivir and analogs thereof, and new antiviral agents” (Brock University, priority 2009, dated 2014) can be followed below.

For the experiment, the target named is T1, Neu1 sialidase (Mus musculus, UniProt O35657).
T1 construct: endogenous in cells; host or cells: RAW-blue macrophage cells
Kind of experiment: LPS-induced Neu1 sialidase activity in live RAW-blue macrophage cells (4MU-NeuAc fluorescence). Type of experiment: cell-based. The method, then: Inhibitory Potency of Compounds of the Application on Lipopolysaccharide (LPS)-Induced Neu1 Sialidase Activity in Live Raw-Blue Macrophage Cells
Compounds of the application were assessed for antiviral activity using an assay that detects sialidase activity on the surface of viable cells. […] Fluorescent images were taken at 1-2 minutes after adding the substrate using epi-fluorescent microscopy (40× objective). The mean fluorescence surrounding the cells for each of the images was measured using Image J software.

For orientation: IC50 means the point on the concentration scale where inhibition reaches its midpoint. Turning to `CCOC(=O)C1=C[C@@H](OC(CC)CC)[C@H](NC(C)=O)[C@@H](N)C1` [oseltamivir phosphate 1a (Tamiflu ®), oseltamivir phosphate, reference compound], half-maximal inhibition (IC50) was put at 20 nM.
